The text below walks through data of ChEMBL document CHEMBL2401681 (Bioorg Med Chem Lett, 2013).

Amino acid sequences for entries named in this document (tags omitted).
UniProt P03372, whole entry: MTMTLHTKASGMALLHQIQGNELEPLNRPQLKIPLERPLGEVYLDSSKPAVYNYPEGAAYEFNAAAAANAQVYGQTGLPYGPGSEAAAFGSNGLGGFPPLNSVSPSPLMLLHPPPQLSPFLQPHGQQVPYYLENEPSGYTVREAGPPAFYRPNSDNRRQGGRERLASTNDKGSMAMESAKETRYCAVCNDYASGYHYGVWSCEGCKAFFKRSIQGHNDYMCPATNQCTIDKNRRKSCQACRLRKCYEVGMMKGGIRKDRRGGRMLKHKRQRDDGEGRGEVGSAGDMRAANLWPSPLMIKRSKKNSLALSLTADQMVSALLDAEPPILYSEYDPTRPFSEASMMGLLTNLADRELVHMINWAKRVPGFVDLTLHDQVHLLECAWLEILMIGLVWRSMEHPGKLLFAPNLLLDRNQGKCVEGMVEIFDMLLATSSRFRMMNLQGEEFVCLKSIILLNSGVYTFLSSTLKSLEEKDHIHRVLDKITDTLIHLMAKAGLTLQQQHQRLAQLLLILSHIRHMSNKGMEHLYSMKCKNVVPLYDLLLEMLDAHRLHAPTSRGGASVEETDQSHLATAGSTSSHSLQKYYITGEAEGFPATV
UniProt Q92731, whole entry: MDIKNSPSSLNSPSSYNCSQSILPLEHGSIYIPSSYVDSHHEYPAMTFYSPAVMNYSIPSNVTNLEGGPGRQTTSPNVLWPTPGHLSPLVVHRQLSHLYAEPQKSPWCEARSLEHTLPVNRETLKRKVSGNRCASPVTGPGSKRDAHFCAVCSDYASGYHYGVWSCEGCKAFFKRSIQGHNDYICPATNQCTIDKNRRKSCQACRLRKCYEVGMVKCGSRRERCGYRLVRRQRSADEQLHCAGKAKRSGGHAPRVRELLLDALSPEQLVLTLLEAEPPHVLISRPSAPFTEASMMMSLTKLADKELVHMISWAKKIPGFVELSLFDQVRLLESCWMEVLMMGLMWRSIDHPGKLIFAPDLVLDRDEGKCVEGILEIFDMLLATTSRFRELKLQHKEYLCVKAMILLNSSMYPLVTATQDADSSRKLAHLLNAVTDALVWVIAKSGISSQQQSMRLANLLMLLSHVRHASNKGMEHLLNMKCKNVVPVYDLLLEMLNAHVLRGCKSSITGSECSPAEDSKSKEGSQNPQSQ

One test concerns the target Estrogen receptor (Homo sapiens, UniProt P03372). As to conditions: at 3 µM.
The target in the next test is Estrogen receptor beta (Homo sapiens, UniProt Q92731). The settings on record: at 3 µM.

Molecules are shown by their SMILES.

With `CCCCC(CCCC)(c1ccc(O)c(CCC)c1)c1ccc(O)c(CCC)c1`, the values for the inhibition against Estrogen receptor and on Estrogen receptor beta were 15% and 14%, respectively. On the same counts, the results for `CCCc1cc(C(CC)(CC)c2ccc(O)c(CCC)c2)ccc1O` are 17% and 35%. The matching figures for `CCCc1cc(C(CCC)(CCC)c2ccc(O)c(CCC)c2)ccc1O`: 38% and 23%.

On to `CCCC[Si](CCCC)(c1ccc(O)c(C)c1)c1ccc(O)c(C)c1`, for which the inhibition at Estrogen receptor worked out at 30%.
